# Experimental data taken from ChEMBL document CHEMBL6120977, “Structure-Affinity-Pharmacokinetics Relationships of Novel 18F-Labeled 1,4-Diazepane Derivatives for Orexin 1 Receptor Imaging” (J Med Chem, 2024).
# By UniProt entry, the sequences of proteins in these tests, tags left out.
# UniProt O43613, whole entry: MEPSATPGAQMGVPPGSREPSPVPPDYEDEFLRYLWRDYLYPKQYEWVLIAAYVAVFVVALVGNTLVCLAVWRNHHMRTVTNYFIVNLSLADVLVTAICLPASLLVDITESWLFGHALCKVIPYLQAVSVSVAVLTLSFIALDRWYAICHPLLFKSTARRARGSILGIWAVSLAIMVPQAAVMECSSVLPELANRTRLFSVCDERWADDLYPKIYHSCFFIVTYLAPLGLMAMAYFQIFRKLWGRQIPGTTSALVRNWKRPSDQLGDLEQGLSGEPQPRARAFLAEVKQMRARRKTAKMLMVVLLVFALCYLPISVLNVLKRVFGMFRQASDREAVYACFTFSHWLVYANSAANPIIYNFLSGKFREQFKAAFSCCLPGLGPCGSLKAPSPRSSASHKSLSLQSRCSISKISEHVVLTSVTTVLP
# Molecular target: Orexin/Hypocretin receptor type 1 (Homo sapiens, UniProt O43613)
# Assay: Displacement of […]5IBOM from OX1R (unknown origin) transfected in CHO cells assessed as inhibition constant incubated for 1.5 hrs by automated gamma-counter analysis
# Assay type: cell-based
compound,measurement,value
CNC(=O)[C@@H](c1ccccc1)N1CCc2cc(OC)c(OC)cc2[C@@H]1CCc1ccc(C(F)(F)F)cc1 [ALMOREXANT],pKi,8.57

# pKi: −log10 of the molar value.
